Data from patent US10005817.

Amino acid sequences for entries named in this document (tags omitted). Residues count along the entry.
UniProt Q03431, 27-593: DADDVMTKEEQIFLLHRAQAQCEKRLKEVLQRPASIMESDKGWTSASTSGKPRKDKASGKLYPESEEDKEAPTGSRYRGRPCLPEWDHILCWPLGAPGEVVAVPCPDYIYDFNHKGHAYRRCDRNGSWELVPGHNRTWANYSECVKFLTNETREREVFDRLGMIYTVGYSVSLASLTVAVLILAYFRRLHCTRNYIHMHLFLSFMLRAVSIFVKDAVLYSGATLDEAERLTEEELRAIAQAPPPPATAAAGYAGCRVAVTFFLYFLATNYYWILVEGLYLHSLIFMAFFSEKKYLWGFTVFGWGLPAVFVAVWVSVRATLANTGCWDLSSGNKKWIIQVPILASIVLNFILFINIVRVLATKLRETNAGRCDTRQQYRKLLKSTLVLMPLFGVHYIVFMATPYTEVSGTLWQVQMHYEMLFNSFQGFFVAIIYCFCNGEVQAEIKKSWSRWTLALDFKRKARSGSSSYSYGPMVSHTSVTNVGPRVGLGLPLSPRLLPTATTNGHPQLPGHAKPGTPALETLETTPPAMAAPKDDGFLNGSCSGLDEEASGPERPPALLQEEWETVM

Target: PTH receptor (PTHR1) (human) (UniProt Q03431)
Assay: cell-based or functional assay

## human PTHrP (coded sample) (from UniProt P12272 37-70) (ligand)
  maximal response: 100%
